For series [1] the following is noted: mice, single dose 5 mg/kg i.v., plasma sampled from 15 min, LC/MS/MS.
For series [2] the following is noted: cited from earlier work.

Turning to `CSCC[C@H](NC(=O)[C@H](CC(C)C)NC(=O)[C@H](Cc1c[nH]c2ccccc12)NC(=O)[C@H](CCC(N)=O)NC(=O)[C@@H](NC(=O)[C@H](Cc1ccccc1)NC(=O)[C@H](CC(=O)O)NC(=O)[C@H](CCC(N)=O)NC(=O)[C@H](C)NC(=O)[C@H](CCCN=C(N)N)NC(=O)[C@H](CCCN=C(N)N)NC(=O)[C@H](CO)NC(=O)[C@H](CC(=O)O)NC(=O)[C@H](CC(C)C)NC(=O)[C@H](Cc1ccc(O)cc1)NC(=O)[C@H](CCCCN)NC(=O)[C@H](CO)NC(=O)[C@H](Cc1ccc(O)cc1)NC(=O)[C@H](CC(=O)O)NC(=O)[C@H](CO)NC(=O)[C@@H](NC(=O)[C@H](Cc1ccccc1)NC(=O)[C@@H](NC(=O)CNC(=O)[C@H](CCC(N)=O)NC(=O)[C@H](CO)NC(=O)[C@@H](N)Cc1c[nH]cn1)[C@@H](C)O)[C@@H](C)O)C(C)C)C(=O)N[C@@H](CC(N)=O)C(=O)N[C@H](C(=O)O)[C@@H](C)O` [Glucagon], in series [1], the “detection in blood after dosing (in words)” value was “not found in blood after 15 min”. Besides, the plasma half-life entry in series [2] is given as “in a couple of minutes”.
